# Test results published in patent US20260199493A1 (priority 2021, published 2026).
# Read-outs that look alike come from different tables or passages of the source.
# Columns and labels:
# [1] = system: human fibroblast cell line WI38; details: WI38, 24 h, CellTiter-Glo 2.0, relative to vehicle
# [2] = system: human umbilical vein endothelial cells (HUVECs); details: HUVEC, 24 h, CyQuant Green, relative to vehicle
# [3] = system: human peripheral blood mononuclear cells (hPBMCs); details: 24 h, CyQuant Green, relative to vehicle
# [4] = system: primary human renal proximal tubular epithelial cells (RPTECs); details: RPTEC, 24 h; Compound 1b vs. EEV12
# [5] = system: WI38, RPTEC, and HUVEC cells; details: 1 h treatment, relative to 1% Triton-X100 lysis
# [6] = Tissue concentration by LC-MS/MS in hDMD mice; assay type: in vivo; details: 5 days; for tissue concentration in skeletal muscles / tissue concentration in the heart: 40 mpk IV
# [7] = Adverse effects and clinical chemistry in hDMD mice; assay type: in vivo; details: for adverse effects post injection: 10-80 mpk IV; for toxicity by clinical chemistry (liver and kidney panel, hemolysis, lipemia): 5 days post IV injection
# [8] = Tolerability in CD1 mice; assay type: in vivo; details: for tolerability: 80 to 300 mpk
# [9] = Tolerability and clinical chemistry in NHP; assay type: in vivo, cynomolgus monkeys; details: 40 mg/kg; for clinical chemistry panel: 2-d and 7-d post injection; for tolerability: 60-minute IV infusion
# [10] = Tissue concentration and plasma levels in NHP; assay type: in vivo, cynomolgus monkeys
# [11] = HSA-LR mice
# [12] = system: Human Primary Renal Proximal Tubular Epithelial Cells (RPTECs); details: 24 hours
substance,measurement,setting,value
Ac-PKKKRKV-PEG2-K(cyclo[FfΦ-Cit-r-Cit-r-Q]-PEG12-K(N3)-NH2 [Compound 1b],cell viability,[1],non-significant losses in cell viability
same,cell viability,[2],non-significant losses in cell viability
same,cell viability,[3],non-significant losses in cell viability
same,toxicity to RPTECs,[4],reduced toxicity to RPTECs
same,LDH release,[5],no detectable LDH release
same,"serum histamine release, fold lower than EEV12","5 mg/kg IV vs 5 mg/kg EEV12, serum 15 min post-injection",~ 3 fold
same,tolerability,"C57BL/6 mice, IV, unconjugated cCPP",significantly enhanced tolerability
same,dose necessary for histamine release comparable to 5 mg/kg EEV12,"IV, serum 15 min post-injection",20 mg/kg
Ac-PKKKRKV-AEEA-Lys-(cyclo[FGFGRGRQ])-PEG12-OH [EEV-PMO-DMD44-1],tissue exposure,"[6]; 10 to 80 mg/kg IV, cardiac and skeletal muscles, maximum",up to 80%
same,tissue concentration in skeletal muscles,[6],100-300 ng/g tissue
same,tissue concentration in the heart,[6],170 ng per gram tissue
same,adverse effects post injection,[7],No severe adverse effect
same,"toxicity by clinical chemistry (liver and kidney panel, hemolysis, lipemia)",[7],No significant toxicity
same,biomarker abnormalities,"[8]; CD1 mice, 1- and 7-days post injection",No biomarker abnormalities were observed
same,tolerability,"[8]; CD1 mice, IV",very well tolerated
same,symptoms post injection,"[8]; CD1 mice, IV, all doses, completely resolved 1 hour post injection",Only transient symptoms were observed
same,clinical chemistry panel,[9],No abnormality
same,tolerability,[9],well-tolerated
same,extended circulating half-life observed in plasma,[10],up to 50 hours
Ac-PKKKRKV-AEEA-K(cyclo[FGFGRGRQ])-PEG12-OH [EEV-PMO-DM1-3],drug levels in muscle tissues,"[11]; 15-90 mpk IV, 1 week",dose-dependent response
same,drug levels in liver and kidney,"[11]; 80 mpk, 1 week to 4 week",decrease in drug levels
same,drug level in muscle tissue,"[11]; 80 mpk, 1 week to 4 weeks",decrease in drug level
same,toxicity (viability): no toxicity at highest concentration tested,[12],> 797 µM
Ac-PKKKRKV-AEEA-K(cyclo[GfFGrGrQ])-PEG12-OH [EEV-PMO-DMD44-2],tissue concentration in skeletal muscles,[6],300-500 ng/g tissue
same,tissue concentration in the heart,[6],350 ng per gram tissue
same,adverse effects post injection,[7],No severe adverse effect
same,"toxicity by clinical chemistry (liver and kidney panel, hemolysis, lipemia)",[7],No significant toxicity
same,symptoms,"[8]; CD1 mice, 100 mpk IV",one out of three mice showed delayed symptoms 2 hours post injection
same,symptoms,"[8]; CD1 mice, 200 mpk IV",one out of three mice had severe symptoms
same,mortality,"[8]; CD1 mice, 300 mpk IV",one out of three mice died within 1-3 h post injection
same,tolerability,"[8]; CD1 mice, IV",less tolerated
same,symptoms,"[8]; mouse, in vivo",No symptoms were observed
same,clinical chemistry panel,[9],No abnormality
same,tolerability,[9],well-tolerated
